{"sequences": {"note": "Protein sequences, listed by entry. Tags and fused reporters are not part of them. Lines headed by an entry give the natural chain unless they say otherwise; changes in a name come on top.", "UniProt P22411": "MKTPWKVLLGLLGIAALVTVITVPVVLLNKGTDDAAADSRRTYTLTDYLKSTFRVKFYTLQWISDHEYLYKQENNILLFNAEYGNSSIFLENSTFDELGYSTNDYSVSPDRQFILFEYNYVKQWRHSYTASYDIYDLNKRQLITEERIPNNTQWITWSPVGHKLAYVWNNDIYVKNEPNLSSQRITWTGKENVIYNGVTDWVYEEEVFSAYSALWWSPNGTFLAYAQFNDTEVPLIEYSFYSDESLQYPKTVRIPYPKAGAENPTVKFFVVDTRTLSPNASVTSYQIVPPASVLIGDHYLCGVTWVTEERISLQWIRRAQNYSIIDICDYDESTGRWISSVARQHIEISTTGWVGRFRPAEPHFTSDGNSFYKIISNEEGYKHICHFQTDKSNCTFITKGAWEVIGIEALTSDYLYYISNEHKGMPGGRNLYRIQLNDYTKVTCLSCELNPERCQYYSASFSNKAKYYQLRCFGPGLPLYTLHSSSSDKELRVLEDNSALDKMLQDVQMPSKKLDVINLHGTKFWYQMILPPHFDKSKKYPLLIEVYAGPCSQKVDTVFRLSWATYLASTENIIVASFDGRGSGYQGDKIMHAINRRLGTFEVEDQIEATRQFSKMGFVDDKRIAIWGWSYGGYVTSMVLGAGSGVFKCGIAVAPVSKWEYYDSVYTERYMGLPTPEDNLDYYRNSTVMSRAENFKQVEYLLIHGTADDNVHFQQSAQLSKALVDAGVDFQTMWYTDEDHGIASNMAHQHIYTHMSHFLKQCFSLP"}, "source": "patent US20060094722A1", "about": "(Eisai Co., Ltd., priority 2002, published 2006)", "note": "Where a name gives a salt, the structure may show the parent alone."}
{"target": "T1, DPPIV obtained from swine kidney (Sus scrofa, UniProt P22411)", "T1 construct": "DPPIV obtained from swine kidney; from tissue; host or cells: swine kidney", "assay": "Assay for the DPPIV-inhibiting activity", "assay_type": "biochemical", "conditions": "DPPIV 10 mU/mL; Gly-Pro-p-nitroanilide 0.33 mM; absorbance 405 nm; read-out: IC50", "description": "DPPIV obtained from swine kidney was dissolved in a reaction buffer (50 mM Tris-HCl (pH 7.4)/0.1% BSA) at a fmal concentration of 10 mU/mL. A 110 μL aliquot of this enzyme solution was added to the reaction system, and then 15 μL of an agent was added. The reaction solution was incubated at room temperature for 20 minutes. 25 μL of a solution containing 2 mM Gly-Pro-p-nitroanilide was added to the reaction solution (at the final concentration of 0.33 mM) to start the enzyme reaction. The reaction time was 20 minutes. 25 μL of 1N phosphate solution was added to stop the reaction. […] The degree of inhibition to the enzyme reaction was determined, and IC50 was computed based on the absorbance.", "units": {"IC50": "nM"}}
{"smiles": "CC#CCn1c(N2CCNCC2)nc2c1c(=O)n(Cc1ccccc1C#N)c(=O)n2C", "note": "[Example 364, 2-[7-(2-Butynyl)-3-methyl-2,6-dioxo-8-(piperazin-1-yl)-2,3,6,7-tetrahydropurin-1-ylmethyl]benzonitrile trifluoroacetate]", "IC50": 9.48}
{"smiles": "Cn1c(=O)n(CC(=O)c2ccccc2)c(=O)c2c1nc(N1CCNCC1)n2-c1ccccc1Cl", "note": "[Example 378, 7-(2-Chlorophenyl)-3-methyl-1-(2-oxo-2-phenylethyl)-8-(piperazin-1-yl)-3,7-dihydropurine-2,6-dione trifluoroacetate]", "IC50": 9.52}
{"smiles": "COc1ccccc1-n1c(N2CCNCC2)nc2c1c(=O)n(CC(=O)c1ccccc1)c(=O)n2C", "note": "[Example 382, 7-(2-Methoxyphenyl)-3-methyl-1-(2-oxo-2-phenylethyl)-8-(piperazin-1-yl)-3,7-dihydropurine-2,6-dione trifluoroacetate]", "IC50": 6.97}
{"smiles": "COc1ccccc1-n1c(N2CCNCC2)nc2c1c(=O)n(CCc1ccccc1)c(=O)n2C", "note": "[Example 383, 7-(2-Methoxyphenyl)-3-methyl-1-(2-phenylethyl)-8-(piperazin-1-yl)-3,7-dihydropurine-2,6-dione trifluoroacetate]", "IC50": 7.18}
{"smiles": "O=C(O)Cn1c(=O)n(CCc2ccccc2)c(=O)c2c1nc(N1CCNCC1)n2-c1ccccc1Cl", "note": "[Example 393, [7-(2-Chlorophenyl)-2,6-dioxo-1-phenethyl-8-(piperazin-1-yl)-1,2,6,7-tetrahydropurin-3-yl]acetic acid trifluoroacetate]", "IC50": 1.2}
{"smiles": "NC(=O)Cn1c(=O)n(CCc2ccccc2)c(=O)c2c1nc(N1CCNCC1)n2-c1ccccc1Cl", "note": "[Example 394, 2-[7-(2-Chlorophenyl)-2,6-dioxo-1-phenethyl-8-(piperazin-1-yl)-1,2,6,7-tetrahydropurin-3-yl]acetamide trifluoroacetate]", "IC50": 2.16}
{"smiles": "CC#CCn1c(N2CCNCC2)nc2c1c(=O)n(CCc1ccccc1)c(=O)n2CC(=O)O", "note": "[Example 417, [7-(2-Butynyl)-2,6-dioxo-1-(2-phenethyl)-8-(piperazin-1-yl)-1,2,6,7-tetrahydropurin-3-yl]acetic acid hydrochloride]", "IC50": 0.864}
{"test_system": "Zucker fa/fa rats", "assay": "not given", "conditions": "not given", "description": "Animals: Zucker fa/fa Rats, an Animal Model for TypeII Diabetes (Purchased from Charles River Japan, Inc.)\nEach test compound was dissolved in distilled water at the doses shown in the Tables indicated below, and then administered orally at a volume of 5 mL/kg. The vehicle control group was orally administered distilled water at a volume of 5 mL/kg. […] The rats were tested for glucose tolerance on the first day of the administration series. In the test, distilled water and the test compounds were given 0.5 hour before glucose load.\nFor the glucose tolerance test, an unanesthetized rat was lightly cut at the caudal vein with a razor blade and bled immediately before the administration of a test compound or distilled water, and immediately before, and at 0.5, 1, 2, and 3 hours after glucose load. 250 μL of blood was collected from the rat using a heparinized capillary and transferred into a centrifugation tube. The supernatant obtained by centrifugation (at 10000 g at 4° C. for 2 minutes) was assayed for active GLP-1 level using Active GLP-1 ELISA kit (Linco). At the same time, 10 μL of blood was collected and mixed with 140 μL of a 0.6 M perchloric acid solution. […] The level of blood glucose alone was determined at the time of measurement 3 hours after glucose load."}
{"smiles": "CC(C)[C@H](N)C(=O)N1CCCC1", "note": "[Val-Pyr, valine pyrrolidide]", "level of active GLP-1 during the glucose tolerance test": "elevated significantly"}
